Values quoted from earlier work, collected in US6310176A, “Antimicrobially active polypeptides” (SBL Vaccin AB, priority 1996, dated 2001).

Conditions: background, literature; cited from earlier work

In the case of ranalexin, the “Hemolytic activity (in words)” value is listed as “high hemolytic activity”.
